Data: ChEMBL document CHEMBL3616427, “Design, synthesis, and biological evaluation of amide imidazole derivatives as novel metabolic enzyme CYP26A1 inhibitors” (Bioorg Med Chem, 2015)

Target: T1, Cytochrome P450 26A1 (Homo sapiens, UniProt O43174)
T1 sequence (O43174 whole entry): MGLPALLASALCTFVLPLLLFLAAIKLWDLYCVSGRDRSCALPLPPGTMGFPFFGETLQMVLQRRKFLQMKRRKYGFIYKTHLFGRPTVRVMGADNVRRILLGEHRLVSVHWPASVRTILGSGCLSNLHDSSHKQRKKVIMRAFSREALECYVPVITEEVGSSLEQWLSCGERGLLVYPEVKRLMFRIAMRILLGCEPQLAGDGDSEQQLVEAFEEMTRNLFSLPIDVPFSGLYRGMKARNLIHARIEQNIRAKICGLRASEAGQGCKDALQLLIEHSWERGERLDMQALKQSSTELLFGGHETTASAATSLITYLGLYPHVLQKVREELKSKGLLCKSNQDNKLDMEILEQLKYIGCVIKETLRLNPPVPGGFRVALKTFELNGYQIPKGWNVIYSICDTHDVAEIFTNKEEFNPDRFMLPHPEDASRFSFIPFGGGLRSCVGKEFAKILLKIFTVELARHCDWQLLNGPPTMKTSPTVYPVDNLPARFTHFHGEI
Test: Inhibition of CYP26A1 in ATRA-induced human HL60 cell microsomes incubated for 30 mins in dark condition with NADPH and ATRA by HPLC method
Type: cell-based, HL-60

SMILES: Clc1cccc(C(c2ccc3[nH]cnc3c2)n2ccnc2)c1 (stereo unspecified) [LIAROZOLE]
- IC50: 890 nM
